Assay results taken from patent US20050209320A1 (priority 2003, published 2005).

The chains behind the UniProt entries cited, without tags or fusion partners. Where a name states a change or a piece, a line headed by the entry shows the natural chain unless it says otherwise.
UniProt P15207: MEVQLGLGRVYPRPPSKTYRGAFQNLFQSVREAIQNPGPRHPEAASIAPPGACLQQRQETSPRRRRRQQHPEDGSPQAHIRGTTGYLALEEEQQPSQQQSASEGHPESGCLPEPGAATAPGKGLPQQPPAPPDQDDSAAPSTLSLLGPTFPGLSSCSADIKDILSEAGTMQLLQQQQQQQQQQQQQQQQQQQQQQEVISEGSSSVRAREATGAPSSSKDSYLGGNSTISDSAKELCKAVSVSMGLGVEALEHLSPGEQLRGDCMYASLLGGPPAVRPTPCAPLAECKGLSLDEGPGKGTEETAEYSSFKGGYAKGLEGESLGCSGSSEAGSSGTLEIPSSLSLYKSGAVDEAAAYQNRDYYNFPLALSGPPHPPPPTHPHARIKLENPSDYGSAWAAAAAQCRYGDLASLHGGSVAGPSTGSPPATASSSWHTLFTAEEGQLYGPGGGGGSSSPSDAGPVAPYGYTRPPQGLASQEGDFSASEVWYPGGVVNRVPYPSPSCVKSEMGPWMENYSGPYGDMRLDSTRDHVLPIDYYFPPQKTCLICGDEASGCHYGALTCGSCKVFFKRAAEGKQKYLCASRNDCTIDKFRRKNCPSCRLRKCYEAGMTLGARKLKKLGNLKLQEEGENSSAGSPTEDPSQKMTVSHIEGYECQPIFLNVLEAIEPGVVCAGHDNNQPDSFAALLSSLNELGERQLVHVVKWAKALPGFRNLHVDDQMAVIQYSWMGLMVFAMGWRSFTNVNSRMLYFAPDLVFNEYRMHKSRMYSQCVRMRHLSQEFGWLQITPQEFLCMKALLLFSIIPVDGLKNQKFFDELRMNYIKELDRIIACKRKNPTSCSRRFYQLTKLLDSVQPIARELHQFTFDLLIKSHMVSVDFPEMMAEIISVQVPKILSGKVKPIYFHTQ

Assays:
Androgen Receptor (AR) = Androgen Receptor (AR) (Rattus norvegicus, UniProt P15207); assay: Androgen Receptor (AR) binding affinity; conditions: Table 3
[1] = system: LNCaP prostate cancer cells (express AR); assay: Cell proliferation, MTS (CellTiter 96 AQueous One), LNCaP cells; conditions: MTS method, FIG. 3

Cl.Oc1ccc(N(CCCl)CCCl)cc1
Ki (nM) (Androgen Receptor (AR)): DNB | cytotoxicity in LNCaP cells [1]: partial cytotoxicity
